Antibody variant affinities, Ab-91 heavy chain, assay 2

Data: MIT Lincoln Laboratory AlphaSeq set, Engelhart et al. 2022, doi:10.1038/s41597-022-01779-4, as distributed in FLAb.

All variants were tested on one target, the spike HR2 peptide PDVDLGDISGINAS (SARS-CoV-2).

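Phage display of a naive human antibody library on the peptide gave the parent. Variants in AAYL51 differ from the parent at up to three CDR positions; double and triple changes were sampled at random. The assay is AlphaSeq: two haploid yeast populations carry antibody and antigen on their surface. Mating (16 h, 30 °C) was followed by selection of diploids and sequencing of their barcodes. Read counts were normalised to the haploid input and turned into Kd by a linear fit to BCL2-family pairs of known affinity, for each replicate. There are three technical replicates.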

Parent: Ab-91, a human scFv built as VL, a 15-residue (Gly4Ser)3 linker, VH. Only the CDRs of the heavy chain vary.
VL: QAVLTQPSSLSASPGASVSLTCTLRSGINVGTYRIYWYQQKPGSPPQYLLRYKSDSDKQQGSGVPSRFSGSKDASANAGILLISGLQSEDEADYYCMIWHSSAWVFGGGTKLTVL
VH: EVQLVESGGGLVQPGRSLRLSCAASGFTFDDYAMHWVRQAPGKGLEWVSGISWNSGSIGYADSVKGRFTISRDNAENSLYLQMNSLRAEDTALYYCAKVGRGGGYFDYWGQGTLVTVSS

The parent's heavy chain CDRs are GFTFDDYAMH, GISWNSGSIGYADSVK, VGRGGGYFDY; each variant's own CDRs replace them letter for letter. Scale: log10 of Kd in nM, estimated from mating counts; low values are strong binders. The mean shown is taken over the replicates in which the pair was detected. A pair that was not seen in any replicate is written "not detected"; this usually means weak binding, but a binder can also be missed. Background: pairings of library AAYL51 with three empty control strains gave a value in 21% of cases (median 4.54, 5th percentile 3.26). Values in that range, when seen in few replicates, are hard to tell from nonspecific mating. Parent in this assay: reference entry 1.86, copy in this library 0.88.

| CDR-H1 | CDR-H2 | CDR-H3 | mean log10 Kd (nM) | replicates with signal |
|---|---|---|---|---|
| GETFDDYAMH | GISWNSGDIGYADSVK | VGRGRGYFDY | not detected | 0 of 3 |
| GFTFLDYAMH | GISWNSGSIDYADSVK | VGRYGGYFDY | 5.02 | 1 of 3 |
| VFTFDDYAMH | GISWNSGSIGAADSVK | VGMGGGYFDY | 5.00 | 2 of 3 |
| GFTFDDYNMH | GISWNSGSIGAADSVK | VGRGGGYRDY | not detected | 0 of 3 |
| GFTFDDYAMH | GISPNSGSTGYADSNK | VGRGGGYFDY | 0.32 | 3 of 3 |
| LFTFDDYAMH | GISWNFGSIGYADSVK | VNRGGGYFDY | not detected | 0 of 3 |
| GFTFDDYAMH | GISWNSGSIGYAQSVK | TGRGGGYVDY | not detected | 0 of 3 |
| GFTFDWYAMH | VISWNSGSIGYADSVK | TGRGGGYFDY | 4.44 | 2 of 3 |
| GATFGDYAMH | GISWNSGSIGYADSVK | VGRGGGYFWY | 3.52 | 2 of 3 |
| GFTFSDYAMH | GISWNSGSIGYADAYK | VGRGGGYFDY | 3.60 | 3 of 3 |
| HFQFHDYAMH | GISWNSGSIGYADSVK | VGRGGGYFDY | 5.39 | 1 of 3 |
| GFLFDDYAMH | GISWNSGSIAYADSVK | VGRGGGYFDY | not detected | 0 of 3 |
| GFTFDDYAMH | MISWNSGSIQYADSVK | VGLGGGYFDY | not detected | 0 of 3 |
| GRTFIDYAMH | GISWNSGSIGYADSVK | VGRGRGYFDY | not detected | 0 of 3 |
| GFTFDDYAMH | GISWNSGSKGYADSVK | PGRGGGYFLY | 5.26 | 3 of 3 |
| QFTFDDYAMH | GISWISGSIGYVDSVK | VGRGGGYFDY | not detected | 0 of 3 |
| GFTFDDYAMH | GISWNIGSIGYADSVK | VGRGGGYFAV | 3.56 | 1 of 3 |
| GFTFDDYAMH | GISWNSGSIGYADSVK | VGRGGVKQDY | 4.49 | 1 of 3 |
| VFTFDDQAMH | GISWNSGSIGYAVSVK | VGRGGGYFDY | not detected | 0 of 3 |
| GFTFDDYAMH | GISVNDGSIGYADSVK | VGNGGGYFDY | 5.08 | 2 of 3 |
| GFTFDDYAMH | GISWNSGSIGYADSVE | FGRGGGYFVY | 3.41 | 1 of 3 |
| GFTFDDYAMH | GISWNSGSIGYWDSVK | VPRGYGYFDY | not detected | 0 of 3 |
| GFTFDDYAMH | GISWNSYLIGYADSVK | VGRGGGYFDY | 1.80 | 3 of 3 |
| GFTFDDYAMH | MISWNSGSIGYADSVK | VNVGGGYFDY | 5.25 | 1 of 3 |
| GFTFDDYAAH | GIWWDSGSIGYADSVK | VGRGGGYFDY | 4.85 | 3 of 3 |
| GFIFDDYQMH | GISWNSGSIGYADSVK | VGRGGGYFDY | not detected | 0 of 3 |
| SCTFDDYAMH | GISWDSGSIGYADSVK | VGRGGGYFDY | not detected | 0 of 3 |
| GFTFDDFAMH | GISWNSGSIGYDDSVK | VGRGGHYFDY | 5.84 | 1 of 3 |
| GFTFDDYAMH | GISWNSGSIGGADSSK | VGNGGGYFDY | not detected | 0 of 3 |
| GFPFDDYAMH | GISNRSGSIGYADSVK | VGRGGGYFDY | 4.69 | 3 of 3 |
| GFTFDFYAMH | GISWNSGSIGYSDSVK | VGRGGGYFDF | 1.64 | 3 of 3 |
| GFTFDDYAMH | GIAWNAGSIGYADSVK | VGRGNGYFDY | 2.57 | 3 of 3 |
| GFTFDDYAMH | GISWNSGSIGYADSVW | VGRWGGYFDM | 3.66 | 2 of 3 |
| GFTFDDYAMH | GISWNSGSIGYADSVK | VGRGGHVFDF | not detected | 0 of 3 |
| GFTFDDYAMH | GISWNSGSIGYADSVA | CGRGGCYFDY | 5.09 | 3 of 3 |
| GFTFDDYAMH | GISWNVGSIGYADSVK | VGRGGGYFMY | not detected | 0 of 3 |
| GFTFDIYAMH | GISWMSGSIYYADSVK | VGRGGGYFDY | not detected | 0 of 3 |
| GFTFDDYAMH | GISWNSGSIIYADSVK | VGRGGSKFDY | not detected | 0 of 3 |
| GGTFDDYAMH | GISWNSGSIGRADSVK | VGRGGGYFEY | not detected | 0 of 3 |
| GFTFVDYAMH | GISWNSGSFGIADSVK | VGRGGGYFDY | 4.13 | 3 of 3 |
| GFTFDDYAHH | GESWNSGSIGYADSVK | VGCGGGYFDY | not detected | 0 of 3 |
| PFTFDDYAMH | KISWNSGSIGYADSVK | VGRGGGYFDY | not detected | 0 of 3 |
| GFTFDDYAPH | TISWNSGSIGYADSVK | VGRGGGYFRY | 4.09 | 1 of 3 |
| GFTFDDYAMH | KISQNSGSIGYADSVK | VGRGGGYFDC | not detected | 0 of 3 |
| GFTFDDYAMH | TISWNSGSIGYAASVK | VQRGGGYFDY | 3.78 | 1 of 3 |
| QFTWDDYAMH | GISWNYGSIGYADSVK | VGRGGGYFDY | 3.82 | 1 of 3 |
| GFTFDDYAMH | GISWNSGLIGYADKVK | VGRGGGYDDY | 2.63 | 3 of 3 |
| GFTFKDYAMH | GISVNSGSRGYADSVK | VGRGGGYFDY | 1.33 | 3 of 3 |
| NFTFDDYAMH | GQSWNSGSIGYADSVK | VGRGGGIFDY | 4.76 | 3 of 3 |
| NFTTDDYAMH | GISWNSGSIGYADSVK | VGRGGGWFDY | 3.67 | 1 of 3 |
| GFFFDDYVLH | GISWNSGSIGYADSVK | VGRGGGYFDY | not detected | 0 of 3 |
| GPTFDYYAMF | GISWNSGSIGYADSVK | VGRGGGYFDY | not detected | 0 of 3 |
| GDTFDDYAMH | GISWNSGSIGYADMVF | VGRGGGYFDY | not detected | 0 of 3 |
| GFTFDDYAMH | GISWNSMSIGYADSYV | VGRGGGYFDY | 3.57 | 3 of 3 |
| GFTFDDYAMH | GISWNNGSIGYADCVK | VGRGGGYFDH | not detected | 0 of 3 |
| GFTFDDYAMH | GISWNSGPIGYADSVK | VKRGDGYFDY | not detected | 0 of 3 |
| CFTDDDYAMH | GISWNSGSIGYIDSVK | VGRGGGYFDY | 4.26 | 1 of 3 |
| GFTKDDYAMH | GISWNSGSIWAADSVK | VGRGGGYFDY | 4.92 | 3 of 3 |
| GFEFDDYAMH | GISWWSGSIGYADSVK | VGRGNGYFDY | 6.13 | 1 of 3 |
| GFTFDDYAMH | GISWNSGSIGYADSVL | VGIGGGYIDY | not detected | 0 of 3 |
| GFTFDDYGMH | GISWNSGSIGYADSVK | VGRGGGHYDY | 5.29 | 3 of 3 |
| GFTFDDYAMH | GISRNLGSIGYADSVK | AGRGGGYFDY | 4.38 | 1 of 3 |
| GFTFDDYAMH | GISWNSFSIGYADSVK | VGRGGGYKDY | 0.71 | 3 of 3 |
| GFTFDDYANH | YYSWNSGSIGYADSVK | VGRGGGYFDY | not detected | 0 of 3 |
| GFTFDDYAMH | GISWNSGWIGYAVSVK | VGRGFGYFDY | not detected | 0 of 3 |
| GFTFDDCAMH | GISWNSGSIGYADSVR | VGRGGGYFLY | 5.39 | 1 of 3 |
| GFTFDDYAMH | GISWESGSIGQADSVK | VGRGGRYFDY | 4.74 | 1 of 3 |
| GFTFDDYAMW | GISWNSGSIGYADSGK | VGRGGGYFDY | not detected | 0 of 3 |
| GFTFHDYKMH | GISWKSGSIGYADSVK | VGRGGGYFDY | not detected | 0 of 3 |
| GFTFDDYAMH | MISWNSGSIGYADIVK | VGRGGGYFDT | not detected | 0 of 3 |
| GFTFDDYAMH | GISWNGGSIGYATSHK | VGRGGGYFDY | 2.95 | 2 of 3 |
| GFTFDDYAMH | GISWTSGSIGYADSVL | VMRGGGYFDY | not detected | 0 of 3 |
| GFTFDDYAMH | GISWNSGSIRRADSVK | VGRGGGYFDY | 3.78 | 1 of 3 |
| GVTFDDYAMH | GIMWNSGSIGYADSVK | VGRGMGYFDY | 5.51 | 2 of 3 |